For experiment [1], the target named is T1, 5-hydroxytryptamine receptor 2C (Homo sapiens, UniProt P28335). Description: Displacement of [3H]-mesulergine from 5HT2C receptor expressed in CHO cell membranes at 1 uM after 90 mins by scintillation counting.
The target in experiment [2] is T1, 5-hydroxytryptamine receptor 2C. Description: Displacement of [3H]-mesulergine from 5HT2C receptor expressed in CHO cell membranes at 10 uM after 90 mins by scintillation counting.

Chains of the proteins cited; added tags and fusions are not shown. Lines headed by an entry give the natural chain unless they say otherwise; changes in a name come on top.
UniProt P28335: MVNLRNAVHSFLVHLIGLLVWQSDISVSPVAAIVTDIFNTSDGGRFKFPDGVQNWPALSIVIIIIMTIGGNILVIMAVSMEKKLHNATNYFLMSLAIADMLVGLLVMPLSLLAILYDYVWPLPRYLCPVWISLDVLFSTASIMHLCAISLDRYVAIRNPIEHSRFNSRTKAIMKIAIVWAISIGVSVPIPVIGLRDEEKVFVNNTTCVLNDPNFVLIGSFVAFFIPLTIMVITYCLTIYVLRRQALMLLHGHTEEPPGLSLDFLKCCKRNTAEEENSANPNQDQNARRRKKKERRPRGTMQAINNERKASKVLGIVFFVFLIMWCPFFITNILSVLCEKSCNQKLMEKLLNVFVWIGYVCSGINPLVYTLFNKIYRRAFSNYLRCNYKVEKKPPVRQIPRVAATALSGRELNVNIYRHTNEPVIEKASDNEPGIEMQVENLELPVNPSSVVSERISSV

On to `O=C(O)C(F)(F)F.c1cc2c(c(C3CCNCC3)c1)CCCC2`, for which the inhibition in experiment [1] came out at 91%; in experiment [2], 98%.
Regarding `Cc1cccc(C2CCNCC2)c1C.Cl`, the inhibition turned out to be 31% in experiment [1] and 82% in experiment [2].
For the compound `O=C(O)C(F)(F)F.c1ccc2c(C3CCNCC3)cccc2c1`, the figures for the inhibition in experiment [1] and in experiment [2] were 90% and 98%, respectively.
As to `Cl.FC(F)(F)c1ccc(C2CCNCC2)cc1`, the values for the inhibition in experiment [1] and in experiment [2] were 16% and 37%, respectively.
In the case of `COc1cccc(C2CCNCC2)c1.Cl`, the results for the inhibition in experiment [1] and in experiment [2] were 5% and 47%, respectively.
For `Cl.Fc1ccc(C2CCNCC2)cc1` the same measures were 4% and 18%.
On to `Cl.Oc1cccc(C2CCNCC2)c1`, for which the inhibition in experiment [1] was determined as 0%; in experiment [2] it was 11%.
With `Cl.Clc1ccc(C2CCNCC2)cc1`, the results for the inhibition in experiment [1] and in experiment [2] were 3% and 26%, respectively.
For the compound `CN(C)c1ccc(C2CCNCC2)cc1.Cl`, the inhibition in experiment [1] was determined as 7%; in experiment [2], 16%.
In the case of `Cl.FC(F)(F)c1ccccc1C1CCNCC1`, the inhibition in experiment [1] is 40%; in experiment [2] it was 85%.
